Amino acid sequences for entries named in this document (tags omitted). Residues count along the entry.
UniProt Q63380, 1-617: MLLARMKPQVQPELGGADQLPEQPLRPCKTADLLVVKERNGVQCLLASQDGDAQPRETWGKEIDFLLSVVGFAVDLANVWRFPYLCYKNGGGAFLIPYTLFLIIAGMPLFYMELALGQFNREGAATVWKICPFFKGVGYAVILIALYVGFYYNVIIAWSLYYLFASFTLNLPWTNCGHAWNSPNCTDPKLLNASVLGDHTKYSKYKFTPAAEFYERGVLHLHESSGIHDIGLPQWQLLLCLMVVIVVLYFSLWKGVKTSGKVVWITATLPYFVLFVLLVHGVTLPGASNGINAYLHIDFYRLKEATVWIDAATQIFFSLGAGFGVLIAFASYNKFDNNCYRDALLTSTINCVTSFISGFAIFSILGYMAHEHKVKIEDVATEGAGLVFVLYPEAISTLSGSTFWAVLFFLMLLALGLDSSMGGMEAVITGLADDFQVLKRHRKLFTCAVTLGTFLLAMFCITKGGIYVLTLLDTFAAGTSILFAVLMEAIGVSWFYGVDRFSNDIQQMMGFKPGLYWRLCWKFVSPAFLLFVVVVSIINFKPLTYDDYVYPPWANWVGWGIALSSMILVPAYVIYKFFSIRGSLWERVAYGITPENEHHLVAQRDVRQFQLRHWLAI
UniProt P31652, whole entry: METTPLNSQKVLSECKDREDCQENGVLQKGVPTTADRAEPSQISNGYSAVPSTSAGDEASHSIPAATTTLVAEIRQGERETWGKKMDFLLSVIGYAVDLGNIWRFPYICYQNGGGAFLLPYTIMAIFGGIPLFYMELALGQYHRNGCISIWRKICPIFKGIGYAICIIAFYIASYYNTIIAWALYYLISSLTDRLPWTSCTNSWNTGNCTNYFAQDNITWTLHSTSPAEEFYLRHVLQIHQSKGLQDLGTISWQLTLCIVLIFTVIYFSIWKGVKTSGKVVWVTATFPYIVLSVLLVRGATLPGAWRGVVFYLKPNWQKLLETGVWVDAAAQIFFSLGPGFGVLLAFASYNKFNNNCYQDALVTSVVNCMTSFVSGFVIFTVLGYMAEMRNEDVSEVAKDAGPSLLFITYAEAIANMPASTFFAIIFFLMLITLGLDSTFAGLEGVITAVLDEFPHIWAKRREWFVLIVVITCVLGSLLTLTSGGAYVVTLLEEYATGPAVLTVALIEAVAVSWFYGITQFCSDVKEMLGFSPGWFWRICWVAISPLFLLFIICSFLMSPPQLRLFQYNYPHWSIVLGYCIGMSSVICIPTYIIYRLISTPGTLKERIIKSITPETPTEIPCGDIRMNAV

In patent US20040039014A1, “Methods and compounds for treating depression and other disorders” (NPS Pharmaceuticals, Inc., priority 1998, published 2004):

How the values were obtained:
[1] = target: T1, norepinephrine transporter site (Rattus norvegicus, UniProt Q63380); experiment: Norepinephrine reuptake inhibition assay ([3H]nisoxetine binding, rat forebrain membranes); conditions: read-out: NE Uptake Ki
T1 construct: Rat forebrain membranes were incubated with 1.0 nM; tissue NovaScreen (performed the assay); host or cells: rat forebrain membranes

[2] = target: T2, serotonin transporter site (Rattus norvegicus, UniProt P31652); experiment: Serotonin reuptake inhibition assay ([3H]citalopram binding, rat forebrain membranes); conditions: Table II, read-out: 5-HT Uptake mean % inhibition
T2 construct: Rat forebrain membranes were incubated with 0.7 nM; tissue NovaScreen (performed the assay); host or cells: rat forebrain membranes

Compound | Ki [1] | inhibition at 0.1 µM ([2]; @ 100 nM (top number)) | inhibition at 10 µM ([2]; @ 10.0 μM (bottom number))
NCC[C@@H](Oc1cccc(F)c1)c1ccccc1 [Compound 185, (R)-3-(3-Fluorophenoxy)-3-phenylpropylamine] | 858 nM | – | –
NCC[C@H](Oc1cccc(F)c1)c1ccccc1 [Compound 186] | 136 nM | – | –
Fc1ccc([C@@H]2CCNC[C@H]2COc2ccc3c(c2)OCO3)cc1 [Paroxetine, reference compound] | – | > 80% | 98%
